This passage reports IC50 results from article PMC4309955 (Scientific Reports, 2015).

Assay [1] concerns the target T1, human AT1R (angiotensin II type 1 receptor) (Homo sapiens, UniProt P30556). Nature of the assay: inhibition of AngII-induced beta-arrestin activation, cell impedance. The class given is cell-based.
The target in assay [2] is T1, human AT1R (angiotensin II type 1 receptor). Nature of the assay: inhibition of AngII-induced G protein activation, cell impedance. It is filed as cell-based.

For orientation: IC50 means the concentration that inhibits the measured activity by half. A higher IC50 goes with weaker potency.

Turning to `CCCCc1nc(Cl)c(C(=O)O)n1Cc1ccc(-c2ccccc2-c2nn[nH]n2)cc1` [EXP3174], the half-maximal inhibitory concentration (IC50) in assay [1] stood at 3.1 nM; in assay [2] it was 2.1 nM.
